# RAD54 inh: inhibitors of human RAD54 branch migration, primary screen, biochemical, fluorescence, single point | DNA repair and recombination protein RAD54-like (Homo sapiens), Q92698 | 360,000 compounds, 0.14% hits | RAD54 Holliday junction branch migration, FAM/BHQ fluorescence | AID 602329, 2012 | inhibition, % at 10.4 µM;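 active means mean normalized replicate activity at least 40 and at least half of replicates scoring 40 or more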;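 further: inhibitors cause a drop in the FAM fluorescence signal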
# CASP6 VEID inh: human caspase-6 inhibitors, primary screen, biochemical, VEID-R110 fluorescence, single point, set 2 | purified caspase-6, Z-VEID-R110 cleavage fluorescence | inhibition, % at 12.5 µM | 350,000 compounds, 0.53% hits | AID 686996, 2013;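 active means mean inhibition across replicates at least about 35%, with every replicate also reaching that limit, limit read from the data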
# RAD52 anneal inh: RAD52 DNA annealing inhibitors, primary screen, biochemical, FRET, single point, set 2 | DNA repair protein RAD52 homolog (Homo sapiens), P43351 | recombinant RAD52 DNA annealing, FRET fluorescence | inhibition, % at 18.7 µM | 360,000 compounds, 0.46% hits;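 active means every replicate showing at least 50% inhibition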
# UUG fidelity: modulators of yeast start codon fidelity, primary screen, whole organism, S. cerevisiae, single point, plate reader | AID 602363, 2012 | S. cerevisiae UUG-firefly luciferase reporter, luminescence/redox ratio | activity score, % at 18.7 µM | hit rate 0.13% among 350,000;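 active = replicate mean at a twofold rise or more, about +100% in these data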;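 also: firefly luciferase made from a UUG start codon reports start codon fidelity; reporter light over untreated wells divided by growth signal over untreated wells; some hits fall short of that in this replicate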
# PglD inh: C. jejuni PglD acetyltransferase inhibitors, primary screen, biochemical, DTNB colorimetric, single point. UDP-N-acetylbacillosamine N-acetyltransferase PglD (Campylobacter jejuni). purified PglD enzyme, DTNB colorimetric CoA detection. inhibition, % at 12.5 µM. 360,000 compounds, 0.098% hits. AID 602405, 2012; in the data active means inhibition above about 16%, passing the limit was not always enough
# INS-1E GSIS act: GLuc luminescence reporter in INS-1E cells, primary screen for activators of glucose-dependent secretion of insulin; 370,000 compounds, 0.61% hits; INS-1E GLuc reporter insulin secretion, 2-3 h; activation, % at 16.6 µM;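 active means lowest replicate activation of at least 40%, so every replicate reaches that level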
# A number is an active result; – = inactive; · = no result given. Most compounds without a hit are left out; they make up all but 1.5% or so of the library.
SMILES,RAD54 inh,CASP6 VEID inh,RAD52 anneal inh,UUG fidelity,PglD inh,INS-1E GSIS act
CN(C)C(=O)c1ccc(-c2ccccc2[C@H]2[C@@H](C#N)N(C(=O)C3CC3)[C@H]2CO)cc1,·,–,–,·,·,–
COC(=O)CCCC1=CC2=CC(=O)C(C)(OC(=O)c3cccs3)C(=O)C2=CN1Cc1ccco1 (configuration not stated),–,46.7,–,–,–,–
COc1ccc(-c2cc(-c3ccco3)[nH]c(=O)c2C#N)cc1OC,–,38.1,–,–,–,52.2
CCCCn1c(N)c(N(CCC(C)C)C(=O)COC(=O)Cc2ccc(Cl)cc2)c(=O)[nH]c1=O,–,–,–,–,–,–
CCN(CC)C(=O)[C@H]1C[C@H](CC(=O)NCCN2CCOCC2)C(=O)N2CCc3c([nH]c4cc(CCC(=O)N(C)C)ccc34)[C@]12C,–,–,–,–,–,–
CCCCCCCCCCCCCCCCn1cc[n+](C)c1,·,–,83.4,·,·,186.2
CC(C)Nc1nc(NCCN2CCCC2)c2sc(-c3ccccc3)cc2n1,–,–,76.1,·,–,–
CC(C)Nc1nc(-c2ccccc2F)c2sc(-c3ccccc3)cc2n1,–,–,–,–,–,–
O=S(=O)(Nc1ccccc1)c1cccc2nsnc12,–,35.6,–,–,–,–
CN(C)c1ccc(C(=O)OCC(=O)Nc2cccc(S(=O)(=O)N3CCCC3)c2)cc1,–,–,–,–,–,·
NC(=O)c1ccc(NC(=O)COC(=O)/C=C/c2ccc(Br)o2)cc1,–,80.2,–,–,–,–
O=C(COC(=O)/C=C/c1ccc(Br)o1)Nc1ccc2[nH]c(=O)[nH]c2c1,–,–,–,–,–,–
CCS(=O)(=O)N1CCN(c2ccc([N+](=O)[O-])c(NCc3ccccc3)c2)CC1,–,·,·,239.8,–,·
CS(=O)(=O)N1CCN(c2ccc([N+](=O)[O-])c(NCc3ccccc3)c2)CC1,–,·,·,–,–,·
CCCc1c(-c2cccc(Br)c2)ncn1CCc1ccccc1OC,·,–,–,·,·,–
O=C(NC(=S)NCC1CCCO1)c1ccc(Cl)cc1Cl (configuration not stated),·,·,·,·,·,56.4
O=C(CCN1C(=O)c2ccccc2C1=O)Nc1sc2c(c1C(=O)NCc1ccco1)CCCC2,–,·,·,–,–,·
Cc1csc(=O)n1CC(=O)OCC(=O)NCc1ccccc1,·,–,–,·,·,–
Cc1csc(=O)n1CC(=O)OCC(=O)NCc1ccc(F)cc1,–,59.4,–,–,–,–
COc1ccc(NC(=S)NC2CCCCC2)c(OC)c1,·,–,–,·,·,–
CC(=O)c1cccc(N(CC(=O)NC2CCCCC2)C(=O)Cn2nnc(-c3ccccc3)n2)c1,–,–,–,–,–,60.8
O=C(CCN1CCN(c2ccccc2)CC1)Nc1ccc(OCc2ccccc2)cc1,–,–,–,–,–,·
CC(=O)Nc1ccc(NC(=S)NC(=O)/C=C/c2ccc(Cl)cc2)cc1,·,–,–,·,·,–
O=C(/C=C/c1ccc(Cl)cc1)NC(=S)Nc1ccc(NC(=O)c2ccco2)cc1,·,·,·,·,·,49.7
CO[C@H](CN(C)Cc1cc(F)ccc1F)[C@H](C)CN(C(=O)Nc1ccc(C(F)(F)F)cc1)[C@@H](C)CO,–,–,–,·,–,·
SMILES,RAD54 inh,CASP6 VEID inh,RAD52 anneal inh,UUG fidelity,PglD inh,INS-1E GSIS act
CSCCC(C(=O)NC1CCCC1)n1c(-c2ccccn2)nc2ccccc21 (configuration not stated),·,–,–,·,·,–
O=C(NC1CCCC1)C(C1CC1)n1c(-c2ccccn2)nc2ccccc21 (configuration not stated),·,–,–,·,·,42.8
CC(C)(C)S(=O)N1Cc2cc(C(=O)O)nc(-c3cccc(-c4cc5ccccc5o4)c3)c2[C@H]1CCO (some centres not stated),–,35.7,–,–,–,–
COc1cccc(-c2cccc(-c3nc(C(=O)Nc4ccc(-c5ccccc5)cc4)cc4c3[C@@H](CCO)N(S(=O)C(C)(C)C)C4)c2)c1 (some centres not stated),·,–,–,·,·,–
CC(C)(C)S(=O)N1Cc2cc(C(=O)Nc3ccc(-c4ccccc4)cc3)nc(-c3cccc(-c4cccc(F)c4)c3)c2[C@@H]1CCO (some centres not stated),·,–,–,·,·,189.5
CC(C(=O)N1CCN(Cc2ccc3c(c2)OCO3)CC1)c1ccc([N+](=O)[O-])cc1 (configuration not stated),·,–,–,·,·,–
CCCc1nc2ccc(NC(=O)NCCC(=O)OCC)cc2c(=O)n1Cc1cccc(Cl)c1,–,·,·,–,–,·
C[C@H](CO)N1C[C@H](C)[C@@H](CN(C)Cc2ccc(C(F)(F)F)cc2)Oc2ccc(NS(=O)(=O)c3ccc(F)cc3)cc2C1=O,–,–,–,–,–,–
COc1ccc(-n2nc3c(c2NC(=O)c2c(-c4ccccc4Cl)noc2C)CS(=O)(=O)C3)cc1,–,42.5,–,–,–,–
COc1ccc(-n2nc3c(c2NC(=O)c2ccccc2)CS(=O)(=O)C3)cc1,–,–,–,–,–,–
O=C(CN1CCN(C(=O)c2ccco2)CC1)NCc1ccc(Cl)cc1,–,–,–,–,–,–
O=C(NC1CCCCC1)c1cccnc1Sc1ccccc1Cl,–,–,–,–,–,–
O=C(NC1CCCCC1)c1cccnc1Sc1ccccc1,·,–,–,·,·,61.9
C[C@@H]1CN([C@@H](C)CO)C(=O)c2cc(C#CCc3ccccc3)cnc2O[C@H]1CN(C)Cc1cccnc1,–,–,–,–,–,–
O[C@H]1C[C@H](c2ccccc2)N(CC2CCCCC2)C[C@@H]1n1cc(C2CC2)nn1,–,–,–,–,–,143.0
O[C@@H]1CN(CC2CCCCC2)[C@@H](c2ccccc2)C[C@H]1n1cc(C2CC2)nn1,–,–,–,–,–,–
Cc1cc(C2=NNC(=NCCc3ccccc3)SC2)c(C)n1CC1CCCO1 (configuration not stated),–,–,–,–,–,–
CN1CCCCCC1C(=O)N1CCC(N2CCC(C(=O)N3CCOCC3)CC2)CC1 (configuration not stated),–,–,–,–,–,49.4
CN(C)c1ccc(-c2c(-c3ccc4c(c3)OCO4)noc2-c2ccsc2)cn1,–,·,·,–,–,·
O=C(O)c1cc(-c2ccc(-c3c(-c4ccc5c(c4)OCO5)noc3-c3ccsc3)cc2)nc2ccccc12,–,37.1,–,–,–,·
CCOC(=O)Cn1c(=NC(=O)c2sc3ccccc3c2Cl)sc2cc(S(N)(=O)=O)ccc21,–,·,·,–,–,70.7
COC(=O)Cn1c(=NC(=O)c2sc3ccccc3c2Cl)sc2cc(S(N)(=O)=O)ccc21,·,–,–,·,·,–
C=CCOc1ccc(-c2nc3c(c(=O)[nH]c(=O)n3CCCC)n2C)cc1Br,–,–,–,–,–,50.5
